Test results: patent publication CN106632674A

The chains behind the UniProt entries cited, without tags or fusion partners. Residues count along the entry.
UniProt Q15116, 25-170: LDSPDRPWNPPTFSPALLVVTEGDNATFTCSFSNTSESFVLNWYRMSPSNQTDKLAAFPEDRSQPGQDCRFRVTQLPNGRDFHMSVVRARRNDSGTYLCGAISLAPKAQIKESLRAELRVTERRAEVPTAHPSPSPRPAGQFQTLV

Legend:
[1] = target: 抗原PD-1 (PD-1ECD released from PD-1-mFc by TEV protease, biotin-labelled) (human) (UniProt Q15116); assay: BLI (Fortebio), error of kon
[2] = target: 抗原PD-1 (PD-1ECD released from PD-1-mFc by TEV protease, biotin-labelled) (human) (UniProt Q15116); assay: BLI (Fortebio), biotinylated PD-1 on SA sensor, antibody 3-fold dilutions from 200 nM
[3] = target: 抗原PD-1 (PD-1ECD released from PD-1-mFc by TEV protease, biotin-labelled) (human) (UniProt Q15116); assay: BLI (Fortebio), error of kdis

kon误差 [1]: 17700 M⁻¹ s⁻¹
Kd [2]: 0.111 nM
koff [2]: 0.000103 s⁻¹
kon [2]: 927000 M⁻¹ s⁻¹
kdis误差 [3]: 6.37e-06 s⁻¹
Substance: 阳性对照抗体5C4 (antibody)
